Assay results taken from article PMC12588083, “Validated antimalarial drug target discovery using genome-scale metabolic modeling” (Antimicrobial Agents and Chemotherapy, 2025).

System: CMP
Assay: purified protein, by the assay type
Conditions: other: phosphate acceptor, ATP as phosphate donor, 25°C, pH 7.6

Substance	Km
hUCK (Homo sapiens)	24.8 ± 2.6 µM
PfUCK (Plasmodium falciparum 3D7)	28 ± 9 µM
